Results: ChEMBL document CHEMBL1131149, “Acetylcholinesterase noncovalent inhibitors based on a polyamine backbone for potential use against Alzheimer's disease” (J Med Chem, 1998)
pIC50: −log10 of the molar value.

Chains of the proteins cited; added tags and fusions are not shown. Lines headed by an entry give the natural chain unless they say otherwise; changes in a name come on top.
UniProt P22303: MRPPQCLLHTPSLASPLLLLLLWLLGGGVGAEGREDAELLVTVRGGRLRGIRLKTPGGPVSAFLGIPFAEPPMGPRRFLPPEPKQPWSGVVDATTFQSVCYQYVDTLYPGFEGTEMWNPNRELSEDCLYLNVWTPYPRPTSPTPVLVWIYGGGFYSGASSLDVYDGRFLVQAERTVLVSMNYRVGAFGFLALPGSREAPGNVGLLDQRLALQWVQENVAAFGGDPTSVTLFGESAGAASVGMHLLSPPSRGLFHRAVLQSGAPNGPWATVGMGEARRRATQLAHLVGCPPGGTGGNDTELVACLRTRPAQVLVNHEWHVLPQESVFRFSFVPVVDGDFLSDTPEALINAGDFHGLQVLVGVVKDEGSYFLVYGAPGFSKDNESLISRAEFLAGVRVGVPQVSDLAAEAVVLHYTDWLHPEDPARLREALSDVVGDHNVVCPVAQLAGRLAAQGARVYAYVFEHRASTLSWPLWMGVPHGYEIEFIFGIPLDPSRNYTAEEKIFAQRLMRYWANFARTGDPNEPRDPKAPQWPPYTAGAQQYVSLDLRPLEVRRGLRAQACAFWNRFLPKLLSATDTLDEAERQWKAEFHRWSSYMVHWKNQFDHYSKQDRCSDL

Target: Acetylcholinesterase (Homo sapiens, UniProt P22303)

Structure (SMILES): COc1ccccc1CNCCCCCCNCCCCCCCCNCCCCCCNCc1ccccc1OC [METHOCTRAMINE]
- pIC50: 5.27
